# According to patent US20020142945A1, “Immunomodulatory methods using carbohydrate antigens” (President and Fellows of Harvard College, priority 1998, published 2002):
# Where two headings read alike, the source gives them in different places.
# How the values were obtained:
# serum total IgE [1] = details: intranasal sensitization; cited from earlier work
# B220+ cells = test: B7-1 and B7-2 expression on B220+ splenocytes (immunofluorescent staining, flow cytometry); assay type: in vivo, mice
# Procedure: In flat-bottom 24-well culture plates (Corning), suspensions of 2.5×10^6 cells per ml were cultured with ConA (2 μg/ml) or without restimulation at 37° C. in supplemented RPMI 1640 medium as described above. 24, 72 and 120 hrs later, the cell cultures were then centrifuged, and the culture supernatants were harvested and kept frozen (−80° C.) until assayed. Pelleted cells were resuspended then stained with mAbs coupled to FITC or PE for immunofluorescent staining. IL-2, IL-4, IL-5, IL-10 and IFN-γ levels in supernatants from ConA-stimulated or unstimulated splenocytes were measured by capture ELISA. In brief, Maxisorp microtitre plates (Nunc Laboratories Ltd., Denmark) were coated with 50 μl of capture Ab at 2.0 μg/ml (rat anti-mouse IL-5, IL-10 and IFN-γ from Pharmingen and rat anti-mouse IL-4 from Endogen, Mass.) in Carbonate-bicarbonate buffer by overnight incubation at 4° C. Wells were then washed with PBS-T four times and blocked by addition of 10% FCS in PBS (2 hours, 37° C.). 50 μl of culture supernatants and appropriate recombinant standards were then added to individual well in duplicate. For standard curves, recombinant IL-5 (0 to 5,000 pg/ml), IL-10 (0 to 25,000 pg/ml), IFN-γ (0 to 20,000 pg/ml) (Pharmingen, Calif.) and IL-4 (0 to 1,500 pg/ml) (Endogen, Mass.) were used in duplicate. Following overnight incubation at 4° C., the wells were washed and appropriate 50 μl/well biotinylated detection Ab at 1 μg/ml (rat anti-mouse IL-5, IL-10 or IFN-γ from Pharmingin and rat anti-mouse IL-4 from Endogen) were added. For the detection of bound biotinylated Ab, 50 μl of streptavidin-alkaline phosphatase conjugate ( 1/2000, Pharmingen) was added to each well for 45 minutes, then washed. Level of cytokine in the wells was visualized by addition of p-nitrophenyl phosphate (Sigma) in glycine buffer. Absorbance was measured at 405 nm using a UVMax automatic microplate reader.
# Following in vitro culture without restimulation, splenocytes were resuspended and incubated on ice for 15 min with mAbs as follows: anti-CD45R/B220 (RA3-6B2), anti-B7-1 (16-10A 1), and anti-B7-2 (GL-1) or isotype-matched controls. All mAbs were either FITC- or PE-conjugated (Pharmingen). After washing with Hanks' balanced salt solution (Gibco) containing 0.05% sodium azide, flow cytometry analysis was performed by using a FACSCalibur flow cytometer and Cell Quest software (Becton Dickinson, CA). Dead cells were excluded from analysis on the basis of propidium iodide (Molecular Probes, OR) staining. Lymphocytes were gated according to the physical characteristics of forward and side scatter and at least 10,000 events were acquired.
# serum total IgE [2] = test: Serum total IgE by sandwich ELISA following immunization of mice; assay type: in vivo
# Text: Young adult (7-9 weeks old) CBA/J, BALB/C, and C57BL/6 strain female mice were purchased from Harlan (Indianapolis, Ind.). Female CBA/CaJ xid and age-matched control female CBA/CaJ mice were purchased from The Jackson Laboratory (Bar Harbor, ME). IL-4 deficient BALB/C mice were generated as described ( ). This deficient mice were bred and maintained at Harvard School of Public Health according to the guidelines set forth by the Harvard Medical Area Research Committee.
# Multivalent LNnT or Lewis^γ were conjugated with HSA (LNnT-HSA and Le^y-HSA) by Accurate Chemical and Scientific Corporation (NY). In both neoglycoproteins, 13 molecules of sugar conjugated to 1 HSA molecule. As controls, HSA (Sigma Chemical Co., Mo.), HSA adsorbed to alum (Intergen Company, NY; HSA-alum), or Dulbecco's PBS (Gibco BRL, NY) were prepared for immunization. Groups of four to six mice were immunized intraperitoneally or subcutaneously with Ags (10 μg of HSA) or saline. First and second boosting immunization were performed in the same fashion 2 and 3 weeks later, respectively. Protein concentration was determined by bicinchoninic acid (BCA) assay (Pierce, Ill.).
# Immunized mice were bled from the tail 10, 6, and 5 days following primary, first, and second boosting immunization, respectively. Total and HSA-specific IgE were determined by sandwich ELISA. In brief, ELISA plates (Corning Inc., NY) were coated overnight at 4° C. with 100 μl of 5 μg/ml rat anti-mouse IgE mAb (Biosource, CA) in carbonate-bicarbonate buffer, pH 9.6. After washing four times with PBS containing 0.05% Tween20 (PBS-T), plates were blocked with 200 μl PBS containing 10% FCS and 0.3% Tween20 for 2 hrs at 37° C. After washing as above, 100 μl samples of serially-diluted serum or standard mouse IgEmAb (Pharmingen, Calif.) were added in duplicate wells and incubated for 2 hrs at 37° C. Thereafter, 100 μl biotinylated anti-mouse IgEmAb (0.5 μg/ml, Pharmingen) or biotinylated HSA (1 μg/ml) were added to detect total IgE and HSA-specific IgE, respectively. After 2 hrs incubation at 37° C., plates were washed and 100 μl peroxidase-conjugated streptavidin (Sigma) diluted 1/1000 was added to each well and incubated for 1 hr at 37° C. Finally plates were washed eight times, the reactions were developed by addition of tetramethyl-benzidine substrate (Kirkegaard and Perry Laboratories, Gaithersburg, Md.) and stopped by addition of phosphoric acid (0.4M). The absorbance was measured at 450 nm in UVMax automated plate reader (Molecular Devices Corp., Menlo Park, Calif.). For biotinylation, HSA (2 mg/ml) in sodium bicarbonate buffer pH 8.5 was incubated with biotin (long arm) N-hydroxy succumide ester (Vector Lab., CA) for 2 hrs at room temperature, stopped the reaction by addition of 5 μl ethanolamine, and dialyzed overnight with PBS/0.05% sodium azide.
# [3] = BALB/C mice, following second IP immunization
substance,measurement,setting,value
LNnT-HSA: Multivalent lacto-N-neotetraose conjugated with human serum albumin; 13 molecules of sugar per HSA molecule,elevation of serum IgE,serum total IgE [1],does not induce
same,B220 positive cells expressing B7-2 molecule,"B220+ cells; 24 hrs culture incubation without restimulation, vs saline or HSA",increased
same,B7-2 expression on B220+ cells,B220+ cells; IL-4 deficient mice,did not induce B7-2 expression
same,duration of increase of B7-2 expressing B220 positive cells,B220+ cells; culture without restimulation,at least 120 hrs
same,incubation after which increase of B7-2 expressing B220 positive cells was found,B220+ cells; culture without restimulation,6 h
same,B7-1 expression on B220 positive cells,"B220+ cells; cultured splenocytes without restimulation, throughout the period observed",not altered
same,percentage of the cells positive for both B7-2 and B220 molecules,"B220+ cells; freshly isolated splenocytes, IP immunized mice",0.56±0.04 percentage
same,percentage of the cells positive for both B7-1 and B220 molecules,"B220+ cells; freshly isolated splenocytes, IP immunized mice, n=6",0.88±0.06 percentage
same,elevation of serum total IgE,"serum total IgE [2]; BALB/C mice, SC immunization, even following the boost",not seen
same,serum total IgE,"serum total IgE [2]; BALB/C mice, following first boosting IP immunization, vs saline, HSA, Le^y-HSA, HSA-Alum",significantly higher
same,elevation of serum IgE,"serum total IgE [2]; BALB/C mice, following primary inoculation",not seen
same,duration of high elevation of serum IgE,serum total IgE [2]; [3],at least 8 weeks
same,serum IgE,serum total IgE [2]; [3],significantly elevated
same,serum IgE,"serum total IgE [2]; C57BL/6 mice, following first IP immunization",did not show the increase
same,serum IgE,"serum total IgE [2]; C57BL/6 mice, following second IP immunization",induced the increase
same,serum IgE,"serum total IgE [2]; CBA/CaJ xid mice vs control CBA/CaJ mice, IP immunization",significantly lower
same,serum IgE,"serum total IgE [2]; CBA/CaJ xid mice, IP immunization, vs saline or HSA",significantly higher
same,serum IgE,"serum total IgE [2]; CBA/J mice, following first boosting IP immunization, vs control groups",significant elevation
same,polyclonal IgE production,"serum total IgE [2]; IL-4 deficient mice, repeated IP immunization",did not induce polyclonal IgE production
same,time that high levels of non-specific IgE persist,serum total IgE [2]; longest time point in the study,at least 70 days
